Antibody variant affinities, Ab-14 light chain, assay B

Antigen: PDVDLGDISGINAS, a 14-residue peptide of the SARS-CoV-2 spike HR2 region.

Parent scFv Ab-14: VH joined to VL by three GGGGS repeats. Changes lie in the light chain CDRs alone.
VH: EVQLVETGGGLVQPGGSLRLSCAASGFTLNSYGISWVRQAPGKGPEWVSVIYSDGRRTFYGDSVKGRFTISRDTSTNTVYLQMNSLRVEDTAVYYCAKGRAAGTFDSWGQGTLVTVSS
VL: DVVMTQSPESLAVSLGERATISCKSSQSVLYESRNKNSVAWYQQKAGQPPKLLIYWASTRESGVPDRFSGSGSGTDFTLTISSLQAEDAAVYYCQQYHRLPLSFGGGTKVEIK

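The variants were designed computationally from a first round of random CDR variants and then made and measured. Group labels follow the data file (Ctrl: baseline library sampled from a position-specific scoring matrix, with some repeated check sequences; Rand: our label for a block that the file lists under HC and that is probably the random mutants of the ten best first-round binders; GP: Gaussian process model; HC: hill climbing; Gen: genetic algorithm; Gibbs: Gibbs sampling; a sequence that several methods proposed may carry one label only). In AlphaSeq, yeast of one mating type display the scFv and yeast of the other type display the target. The frequency of each diploid, read from paired DNA barcodes, reflects how well the two displayed proteins bind. Scores were corrected for input abundance and mapped to Kd with protein pairs of known affinity run in the same pool. Mating was done six times.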

Each variant is given by its three light chain CDRs, as the data file delimits them; those of the parent are KSSQSVLYESRNKNSVA, WASTRES, QQYHRLPLS. This list holds designs with at most six substitutions. Each Kd is an estimate from the mating assay, the geometric mean of the replicates in which the pair was seen; lower is stronger. "nd" means that the variant was in the library but no mating with the target was seen in any replicate; the authors take this as a sign of poor binding, and no number exists. Nonspecific signal, from three strains lacking the peptide, appeared in 4% of pairings of all light chain designs, centred on 430 nM (5% of these signals below 38 nM); values are not corrected for it. The control count says in how many pairings with the empty strains this scFv gave a signal. Values of this round are not directly comparable with the first-round values of the same sequences. In the paper, a design with two or fewer of six values counts as a poor binder.

- KLDQGQLYESRNKNSVA, GASTRES, QQYHRLPLS [GP_HC]: 940 pM (6 of 6 replicates; controls 1 of 18)
- KLSQSVLMGDRNKNSVA, QASTREM, QQYHRLPLS [GP_Gibbs]: 960 pM (6 of 6 replicates; controls 1 of 18)
- KLSQGQLYESRNKNSVA, NASTRES, QQYHRLPLS [GP_Gen]: 1.2 nM (6 of 6 replicates; controls 0 of 18)
- KSSISYMEESRNKNSVA, EASTRES, QQYHRLPLS [GP_HC]: 1.4 nM (6 of 6 replicates; controls 1 of 18)
- KLSKSVMYESRNKNSVA, SASTRYE, QQYHRLPLS [GP_Gibbs]: 1.1 nM (6 of 6 replicates; controls 0 of 18)
- KVQQSVLYESRNKNSVA, EASQRES, QQYHRLPLS [GP_Gen]: 670 pM (6 of 6 replicates; controls 0 of 18)
- KLSQSVLYESRNSNSVA, NASTRES, QQYHRLPLS [GP_Gen]: 720 pM (6 of 6 replicates; controls 0 of 18)
- KTPQGVLYESRNKNSVA, HASVRES, QQYHRLPLS [GP_HC]: 5.6 nM (6 of 6 replicates; controls 0 of 18)
- KFSQSVGYQTRNKNSVA, DASTRES, QQYHRLPLS [GP_Gibbs]: 910 pM (6 of 6 replicates; controls 0 of 18)
- KSPQGVLYESRVKNSVA, GASTRES, QQYHRLPLS [GP_HC]: 1.5 nM (6 of 6 replicates; controls 0 of 18)
- KSSQGVLMETRNKNSVA, HASTRES, QKYHRLPLS [Ctrl]: nd (0 of 6 replicates; controls 0 of 18)
- KLDQSYLYESRNKNSVA, EASERES, QQYHRLPLY [GP_Gibbs]: 580 pM (6 of 6 replicates; controls 0 of 18)
- HSSPSVLYEDRNKNSVA, NASTRES, QQYHRLPLQ [GP_HC]: 720 pM (6 of 6 replicates; controls 0 of 18)
- KSSQSVPYESRNANSVA, EASTRES, QQYHRLPLS [Ctrl]: 4.2 nM (6 of 6 replicates; controls 0 of 18)
- KFSQSELYESRNKNSVA, EASTRES, QQYHRLPLS [GP_Gen]: 400 pM (6 of 6 replicates; controls 0 of 18)
- KLRQSTLYESRNCNSVA, QASTRES, QQYHRLPLS [GP_HC]: 23 nM (5 of 6 replicates; controls 0 of 18)
- KSSQSVLYESRNKNSVA, WASTRES, QQYYRLPLS [Ctrl]: 150 nM (4 of 6 replicates; controls 0 of 18)
- KSSIGVLYESRNKNSVA, NGSTRES, QQYHRLPLS [Ctrl]: 2.8 nM (6 of 6 replicates; controls 0 of 18)
- KSGTGDLYESRNKNSVA, GASTRES, QQYHRLPLS [GP_HC]: 610 pM (6 of 6 replicates; controls 0 of 18)
- KISQSVLYESRNKNSVA, DASTRCS, QQYHRLPLS [GP_Gen]: 590 pM (6 of 6 replicates; controls 0 of 18)
- KQSQSVQPESRNKNSVA, DASTRES, QQYHRLPLS [Rand]: 390 pM (6 of 6 replicates; controls 1 of 18)
- KLQQQWLYESRNKNSVA, NASTRES, QQYHRLPLS [GP_Gen]: 820 pM (6 of 6 replicates; controls 3 of 18)
- KSLQSELYESRDKNSVA, HASTRED, QQYHRLPLS [GP_HC]: 4.2 nM (6 of 6 replicates; controls 0 of 18)
- KSSQNVLYESTNKNSVA, WAITRES, QQYHRLQKA [Ctrl]: nd (0 of 6 replicates; controls 0 of 18)
- KVSQSVLQLSRNSNSVA, EASTREA, QQYHRLPLS [GP_Gibbs]: 480 pM (6 of 6 replicates; controls 0 of 18)
- KSSQSVLYESRNKNSVA, KVSTRES, QQYHRLPLS [Ctrl]: 72 nM (6 of 6 replicates; controls 0 of 18)
- KLSQSVLYESRNKNSVA, EANTRES, QQYHRLPLS [GP_Gen]: 420 pM (6 of 6 replicates; controls 2 of 18)
- KSSWSVLYESNNKNSVA, NASTRED, QQYHRLPLS [GP_HC]: 1.2 nM (6 of 6 replicates; controls 0 of 18)
- KSSQSVLYEGRNCNSVA, EASTREQ, QQYHRLPLS [Ctrl]: 5.0 nM (6 of 6 replicates; controls 0 of 18)
- KVSQSVLYNSRNKNSVA, WASTRES, QQYHRLPLS [Ctrl]: 5.6 nM (6 of 6 replicates; controls 0 of 18)
- KGSQSWLYESRNKNSVA, GASTRES, QQYHRLPLS [GP_HC]: 410 pM (6 of 6 replicates; controls 0 of 18)
- KLSQSELYLSRNKNSVA, EASTRES, QQYHRLPLS [GP_Gen]: 460 pM (6 of 6 replicates; controls 1 of 18)
- KSSQSVLYESRNKNQVA, NASTRES, QQYHRLPLS [Ctrl]: 400 nM (6 of 6 replicates; controls 0 of 18)
- KSGQGVLYESRNKNSVA, GASTRES, QQYHRLPLC [GP_HC]: 1.7 nM (6 of 6 replicates; controls 0 of 18)
- KLEMSVQMESRNKNSVA, NASTRES, QQYHRLPLS [GP_Gibbs]: 890 pM (6 of 6 replicates; controls 1 of 18)
- KSSQSVCYESRNSNSVA, WASTRES, QQYHRLPLS [Ctrl]: 110 nM (4 of 6 replicates; controls 0 of 18)
- KSSQSVLYESRNKNAVA, WASTRES, QQYHRMPLS [Ctrl]: 150 nM (4 of 6 replicates; controls 0 of 18)
- KSSQSVLYESRNKNSVA, WVSTREM, QQYHRLPFS [Ctrl]: nd (0 of 6 replicates; controls 1 of 18)
- KSPQSTLYESRNKNSVA, HASTRED, QSYHRLPLS [GP_HC]: 1.8 nM (6 of 6 replicates; controls 1 of 18)
- KSSQSVLYESRAKNSVA, WASTRES, QNYHRLPLS [Ctrl]: nd (0 of 6 replicates; controls 0 of 18)
- KMSQSVLYESDNKNSVA, WVSTRES, QQYTRLPLS [Ctrl]: 19 nM (6 of 6 replicates; controls 0 of 18)
- KLSQSVNYESRNKNSVA, NASTRES, QQYHRLPLS [GP_HC]: 1.6 nM (6 of 6 replicates; controls 4 of 18)
- KVRQSWLYESRNKNSVA, NASTRES, QQYHRLPLS [GP_HC]: 1.7 nM (6 of 6 replicates; controls 1 of 18)

For reference, 6 entries of the list once more:

CDR-L1,CDR-L2,CDR-L3,group,Kd,detected,control signals
KISQSVLYESRNKNSVA,DASTRCS,QQYHRLPLS,GP_Gen,590 pM,6 of 6,0 of 18
KSSQSVLYEGRNCNSVA,EASTREQ,QQYHRLPLS,Ctrl,5.0 nM,6 of 6,0 of 18
KSSISYMEESRNKNSVA,EASTRES,QQYHRLPLS,GP_HC,1.4 nM,6 of 6,1 of 18
KLSQSVNYESRNKNSVA,NASTRES,QQYHRLPLS,GP_HC,1.6 nM,6 of 6,4 of 18
KSSQSVLYESRNKNSVA,KVSTRES,QQYHRLPLS,Ctrl,72 nM,6 of 6,0 of 18
KLDQSYLYESRNKNSVA,EASERES,QQYHRLPLY,GP_Gibbs,580 pM,6 of 6,0 of 18

From the AlphaSeq antibody data of Li et al. 2023 (doi:10.1038/s41467-023-39022-2), copy in the FLAb collection.